Laboratory results published in patent US11661419B2, “Benzimidazole derivative compounds and uses thereof” (Pfizer Inc., priority 2019, dated 2023).

System: IL-2 in activated CD4+ human T-cells
Assay: IL-2 inhibition in supernatants from activated CD4+ human T-cells (cisbio HTRF)
Type: cell-based
Conditions: T-cell; geometric mean of count n; CD3/CD28-expanded human CD4+ T cells stimulated with ImmunoCult, 20 to 24 hrs
Description: IL-2-Inhibition Activity, IC50 (uM)
IL-2 inhibition activity in supernatants from activated CD4+ human T-cells was determined by measuring the effect of a test compound on the activity using the cisbio HTRF™ technology.
Human CD4+ T cells were activated with CD3/CD28 for 3 days and expanded for an additional 4-6 days (7 to 9 days total). On day 0, frozen CD4+ T cells were thawed, treated with CD3/CD28 Dynabeads, and incubated at 37° C./5% CO2. On day 3, the beads were removed, and the cells were diluted to 5×10^5 cells/cm^2, placed in G-Rex10 flask, and incubated at 37° C./5% CO2. On day 7 to day 9 the cells were removed from the G-Rex flasks, counted and diluted back to 1×10^6 cells/ml in standard tissue culture flask.
The expanded CD4+ T-cells were centrifuged at 300×g for 10 minutes and resuspended to 0.5 million cells per ml (30,000 cells/well). 60 μl of CD4+ T cells were added per well to a 384 well plate containing 0.1 μL of varying concentrations of test compound in DMSO. The plates were incubated for 15 min at 37° C./5% CO2. 20 μl of diluted ImmunoCult™ ([…] Technologies, 1:12.5 in T cell assay media) were added to all wells of the plate (1:50 final assay concentration). The plates were incubated for an additional 20 to 24 hrs at 37° C./5% CO2. […] Plates were incubated for 3 hours at RT and read with an EnVision plate reader at 665 nm and 615 nm wavelengths.

Row | Structure (SMILES) | IC50
1 | Cc1cc2[nH]c(-c3n[nH]c4c3C[C@@H]3C[C@]3(C)C4)nc2cc1N(C)C(=O)[C@H](C)N1CCOCC1 [Example 1, (S)—N-methyl-N-(6-methyl-2-((4aS,5aR)-5a-methyl-1,4,4a,5,5a,6-hexahydrocyclopropa[f]indazol-3-yl)-1H-benzo[d]imidazol-5-yl)-2-morpholinopropanamide] | 39 nM
2 | Cc1cc2[nH]c(-c3n[nH]c4c3C[C@@H]3C[C@]3(C)C4)nc2cc1N(C)C(=O)[C@@H](C)N1CCOCC1 [Example 3, (R)—N-methyl-N-(6-methyl-2-((4aS,5aR)-5a-methyl-1,4,4a,5,5a,6-hexahydrocyclopropa[f]indazol-3-yl)-1H-benzo[d]imidazol-5-yl)-2-morpholinopropanamide] | 113 nM
